Measurements taken from ChEMBL document CHEMBL5543150, “Design, Synthesis, and Pharmacological Evaluation of Spiro[carbazole-3,3'-pyrrolidine] Derivatives as cGAS Inhibitors for Treatment of Acute Lung Injury” (J Med Chem, 2024).

By UniProt entry, the sequences of proteins in these tests, tags left out.
UniProt Q8N884, whole entry: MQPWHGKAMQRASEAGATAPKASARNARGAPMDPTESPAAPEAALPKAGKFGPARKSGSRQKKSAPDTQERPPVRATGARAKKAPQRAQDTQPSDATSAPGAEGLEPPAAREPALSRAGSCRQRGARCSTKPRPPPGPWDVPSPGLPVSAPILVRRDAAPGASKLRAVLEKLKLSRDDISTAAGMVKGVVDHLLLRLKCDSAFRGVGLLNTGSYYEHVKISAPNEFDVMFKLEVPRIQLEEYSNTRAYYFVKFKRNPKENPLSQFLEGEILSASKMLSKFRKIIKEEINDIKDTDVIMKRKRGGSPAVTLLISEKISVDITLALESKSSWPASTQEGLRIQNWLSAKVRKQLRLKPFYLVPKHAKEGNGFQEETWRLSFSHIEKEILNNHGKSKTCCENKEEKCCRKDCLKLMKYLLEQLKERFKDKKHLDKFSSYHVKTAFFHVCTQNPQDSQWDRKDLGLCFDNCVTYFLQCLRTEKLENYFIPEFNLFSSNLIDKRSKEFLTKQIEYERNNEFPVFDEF

Key:
[1] = target: T1, Cyclic GMP-AMP synthase (Homo sapiens, UniProt Q8N884)
[2] = target: T1, Cyclic GMP-AMP synthase; remark: listed apart in the source
[3] = target: T1, Cyclic GMP-AMP synthase; remark: listed apart in the source
[4] = test system: THP1-Dual; assay: Cytotoxicity against human THP1-Dual cells incubated for 24 hrs by CCK-8 method
[5] = Cytotoxicity against mouse RAW-Lucia ISG cells incubated for 24 hrs by CCK-8 method
[6] = Half life in rat at 1 mg/kg, iv; conditions: in vivo
[7] = MRT last in rat at 1 mg/kg, iv; conditions: in vivo
[8] = Volume of distribution at steady state in rat at 1 mg/kg, iv; conditions: in vivo
[9] = Half life in rat at 3 mg/kg, po; conditions: in vivo
[10] = MRT last in rat at 3 mg/kg, po; conditions: in vivo
[11] = in vivo; conditions: rat, iv, 1 mg/kg
[12] = in vivo; conditions: rat, iv, 1 mg/kg; remark: listed apart in the source
[13] = in vivo; conditions: rat, po, 3 mg/kg
[14] = in vivo; conditions: rat, po, 3 mg/kg; remark: listed apart in the source
[15] = in vivo; conditions: rat, po, 3 mg/kg; remark: listed apart in the source
[16] = in vivo; conditions: rat, po, 3 mg/kg; remark: listed apart in the source

Cn1ccc(-c2cc(Cl)c(Cl)c3[nH]c4c(c23)CN(C(=O)CO)CC4)n1
Tm [1]: 47.8 °C | Tm [2]: 46.5 °C | Tm [3]: 45.4 °C

O=C(CO)N1CC[C@@]2(CCc3[nH]c4c(Cl)c(Cl)cc(-c5ccn(C(F)F)n5)c4c3C2)C1
CC50 [4]: 28.2 µM | CC50 [5]: 44.7 µM

O=C(CO)N1CC[C@]2(CCc3[nH]c4c(Cl)c(Cl)cc(-c5ccn(C(F)F)n5)c4c3C2)C1
CC50 [4]: 14.2 µM | CC50 [5]: 38 µM

O=C(CO)N1CCC2(CCc3[nH]c4c(Cl)c(Cl)cc(-c5ccn(C(F)F)n5)c4c3C2)C1 (racemic)
CC50 [5]: 40 µM | half-life [6]: 3.41 h | MRT last [7]: 4.46 h | Vd [8]: 1.7 L/kg | half-life [9]: 2.46 h | MRT last [10]: 3.59 h | AUC(0-t) [11]: 3020 ng·h/mL | clearance [12]: 5.8 mL/min/kg | Tmax [13]: 1.17 h | Cmax [14]: 626 ng/mL | AUC(0-t) [15]: 3140 ng·h/mL | bioavailability [16]: 35.1%
